Assay results published in patent US8383626B2, “Nitric oxide donors for inducing neurogenesis” (Henry Ford Health System, priority 1999, dated 2013).

System: cGMP
Experiment: cGMP measurement in brain tissue of non ischemic rats
Assay type: in vivo, rat
Settings: 2 or 5 mg/kg for 7 days, vs control
Procedure: Levels of cGMP were measured in non ischemic rat brain. cGMP was determined by a commercially available low pH Immunoassay kit (R&D systems Inc, Minneapolis, Minn.). The sensitivity of the assay was approximately 0.6 pmol/ml for the non-acetylated procedure. The brain was rapidly removed and the cortex and the cerebellum were separated. The brain tissue was weighed and homogenized in 10 volume of 0.1 N HCl containing 1 mM 3-isobutyl-1-methylxanthine (IBMX).
To examine whether administration of VIAGRA™ affects brain cGMP levels, non ischemic rats were treated with VIAGRA™ at 2 mg/kg (n=6), 5 mg/kg (n=6) or saline (n=10) for 6 consecutive days. These rats were sacrificed one hour after the last treatment for measurement of brain cGMP. cGMP was determined by a commercially available low pH Immunoassay kit (R&D systems Inc, Minneapolis, Minn.).

## CCCc1nn(C)c2c(=O)[nH]c(-c3cc(S(=O)(=O)N4CCN(C)CC4)ccc3OCC)nc12 [VIAGRA™, sildenafil]
  cerebellar levels of cGMP: not
  cortical levels of cGMP: significantly (p<0.05) increased
